How the values were obtained:
[1] = Phase I single dose study, pharmacokinetics in subjects with different degrees of impaired renal function; conditions: single oral 200 μg Cebranopadol dose; for AUC0-t / AUC0-∞ / Cmax / Tmax / AUClast: mean
[2] = Phase IIb trial, treatment emergent adverse events in subjects with normal, mildly and moderately impaired renal function
[3] = Phase I single dose study, pharmacokinetics in subjects with normal and impaired hepatic function; conditions: mean, single 200 μg Cebranopadol dose
[4] = final data, mild renal impairment
[5] = final data, moderate renal impairment
[6] = final data, no renal impairment
[7] = final data, severe renal impairment
[8] = preliminary data, mild renal impairment
[9] = preliminary data, moderate renal impairment
[10] = preliminary data, no renal impairment
[11] = preliminary data, severe renal impairment
[12] = mild renal impairment, 200 μg oral
[13] = mild renal impairment, 400 μg oral
[14] = mild renal impairment, 600 μg oral
[15] = mild renal impairment, Cebranopadol overall
[16] = moderate renal impairment, 200 μg
[17] = moderate renal impairment, 200 μg oral
[18] = moderate renal impairment, 400 μg
[19] = moderate renal impairment, 400 μg oral
[20] = moderate renal impairment, 600 μg
[21] = moderate renal impairment, 600 μg oral
[22] = moderate renal impairment, overall
[23] = normal renal function, 200 μg oral
[24] = normal renal function, 400 μg oral
[25] = normal renal function, 600 μg oral
[26] = normal renal function, Cebranopadol overall
[27] = mild hepatic impairment (Child-Pugh)
[28] = moderate hepatic impairment (Child-Pugh)

In the case of `CN(C)[C@]1(c2ccccc2)CC[C@]2(CC1)OCCc1c3cc(F)ccc3[nH]c12`, the AUC0-t [1, 4] is reported as 3.132 ng·h/mL, the “AUC0-∞” value [1, 4] is reported as 3.229 ng·h/mL and the Cmax [1, 4] is reported as 0.144 ng/mL. For the same compound, the Tmax [1, 4] was 5.2 h, the AUC0-t [1, 5] was 3.122 ng·h/mL and the “AUC0-∞” value [1, 5] was 3.893 ng·h/mL. The Cmax [1, 5] was 0.128 ng/mL, the Tmax [1, 5] was 4.6 h and the AUC0-t [1, 6] was 2.65 ng·h/mL. The “AUC0-∞” value [1, 6] was 2.728 ng·h/mL, the Cmax [1, 6] was 0.125 ng/mL and the Tmax [1, 6] was 4.4 h. The AUC0-t [1, 7] was 2.946 ng·h/mL, the “AUC0-∞” value [1, 7] was 3.533 ng·h/mL and the Cmax [1, 7] was 0.131 ng/mL. The Tmax [1, 7] was 5.3 h, the AUClast [1, 8] was 3.18 ng·h/mL and the Cmax [1, 8] was 0.144 ng/mL. For the same compound, the AUClast [1, 9] was 3.12 ng·h/mL, the Cmax [1, 9] was 0.128 ng/mL and the AUClast [1, 10] was 2.65 ng·h/mL. It also gave a Cmax [1, 10] of 0.125 ng/mL, an AUClast [1, 11] of 2.95 ng·h/mL and a Cmax [1, 11] of 0.131 ng/mL. For the same compound, the “trend in main pharmacokinetic parameters with increasing degree of renal impairment” value [1] was “no indication for any trend”, the “No. of subjects with TEAE” value [2, 12] was 30 and the “subjects with TEAE (percent)” value [2, 12] was “(85.7%)”. The “No. of subjects with TEAE” value [2, 13] was 38, the “subjects with TEAE (percent)” value [2, 13] was “(88.4%)” and the “No. of subjects with TEAE” value [2, 14] was 37. The “subjects with TEAE (percent)” value [2, 14] was “(90.2%)”, the “No. of subjects with TEAE” value [2, 15] was 105 and the “subjects with TEAE (percent)” value [2, 15] was “(88.2%)”. For the same compound, the “treatment emergent adverse events related to the underlying renal impairment” value ([2]; moderate renal impairment) was 2, the “cases of disturbance attention” value [2, 16] was 0 and the “cases of head discomfort” value [2, 16] was 1. The “cases of pre-renal failure” value [2, 16] was 0, the “cases of urinary tract infection” value [2, 16] was 1 and the “No. of subjects with TEAE” value [2, 17] was 5. The “subjects with TEAE (percent)” value [2, 17] was “(100%)”, the “cases of disturbance attention” value [2, 18] was 0 and the “cases of head discomfort” value [2, 18] was 0. The “cases of pre-renal failure” value [2, 18] was 0, the “cases of urinary tract infection” value [2, 18] was 0 and the “No. of subjects with TEAE” value [2, 19] was 1. For the same compound, the “subjects with TEAE (percent)” value [2, 19] was “(100%)”, the “cases of disturbance attention” value [2, 20] was 1 and the “cases of head discomfort” value [2, 20] was 0. For the same compound, the “cases of pre-renal failure” value [2, 20] was 1, the “cases of urinary tract infection” value [2, 20] was 0 and the “No. of subjects with TEAE” value [2, 21] was 2. The “subjects with TEAE (percent)” value [2, 21] was “(100%)”, the “No. of subjects with TEAE” value ([2]; moderate renal impairment, Cebranopadol overall) was 8 and the “cases of disturbance attention” value [2, 22] was 1. For the same compound, the “cases of head discomfort” value [2, 22] was 1, the “cases of pre-renal failure” value [2, 22] was 1 and the “cases of urinary tract infection” value [2, 22] was 1. For the same compound, the safety ([2]; multiple doses up to 600 μg/day, mild and moderate renal impairment) was “safe”, the “No. of subjects with TEAE” value [2, 23] was 73 and the “subjects with TEAE (percent)” value [2, 23] was “(81.1%)”. For the same compound, the “No. of subjects with TEAE” value [2, 24] was 68, the “subjects with TEAE (percent)” value [2, 24] was “(81.9%)” and the “No. of subjects with TEAE” value [2, 25] was 76. For the same compound, the “subjects with TEAE (percent)” value [2, 25] was “(89.4%)”, the “No. of subjects with TEAE” value [2, 26] was 217 and the “subjects with TEAE (percent)” value [2, 26] was “(84.1%)”. It also gave a TEAE constipation ([2]; overall, mild renal impairment) of 19.3%, a TEAE dizziness ([2]; overall, mild renal impairment) of 31.9% and a TEAE dry mouth ([2]; overall, mild renal impairment) of 5.9%. For the same compound, the TEAE fatigue ([2]; overall, mild renal impairment) was 16.8%, the TEAE hyperhidrosis ([2]; overall, mild renal impairment) was 5.0% and the TEAE nausea ([2]; overall, mild renal impairment) was 31.9%. The TEAE somnolence ([2]; overall, mild renal impairment) was 19.3%, the TEAE vomiting ([2]; overall, mild renal impairment) was 21.0% and the TEAE constipation ([2]; overall, normal renal function) was 14.7%. It also gave a TEAE dizziness ([2]; overall, normal renal function) of 37.6%, a TEAE dry mouth ([2]; overall, normal renal function) of 1.9% and a TEAE fatigue ([2]; overall, normal renal function) of 13.6%. It also gave a TEAE hyperhidrosis ([2]; overall, normal renal function) of 12.0%, a TEAE nausea ([2]; overall, normal renal function) of 27.9% and a TEAE somnolence ([2]; overall, normal renal function) of 17.4%. The TEAE vomiting ([2]; overall, normal renal function) was 16.3%, the AUC0-t [3, 27] was 1.564 ng·h/mL and the “AUC0-∞” value [3, 27] was 1.912 ng·h/mL. For the same compound, the Cmax [3, 27] was 0.074 ng/mL, the Tmax [3, 27] was 5.5 h and the AUC0-t [3, 28] was 2.38 ng·h/mL. The “AUC0-∞” value [3, 28] was 3.255 ng·h/mL, the Cmax [3, 28] was 0.095 ng/mL and the Tmax [3, 28] was 4.8 h.
